Laboratory results from patent publication US11466067B2 (priority 2019, dated 2022).

Assays:
Conditions in all cases: mouse, in vivo
[1] = tested on: IL-1Ra; parameters: species or system mice
[2] = tested on: oxazolone-induced colitis
[3] = tested on: circulating cytokines

Nc1ccc(O)c(C(=O)O)c1 [5-ASA, 5-aminosalicylic acid, reference compound]
circulating IL-1Ra [1]: not significantly altered
histopathological severity score of colon [2]: but not 5-ASA treatment
oxazolone induction of plasma IL-6 and IL-23 [3]: Suppression of the trend
